By UniProt entry, the sequences of proteins in these tests, tags left out. Residues count along the entry.
UniProt P08508, 31-215: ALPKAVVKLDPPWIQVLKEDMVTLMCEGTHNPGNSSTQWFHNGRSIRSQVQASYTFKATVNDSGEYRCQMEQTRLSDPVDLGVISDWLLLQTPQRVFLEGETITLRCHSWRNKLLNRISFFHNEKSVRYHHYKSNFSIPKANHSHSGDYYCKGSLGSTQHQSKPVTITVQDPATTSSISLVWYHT

According to article PMC12598741 (Antibody Therapeutics, 2025):

Target: mouse CD16 (mCD16), his-tagged (Mus musculus, UniProt P08508)
Assay: BLI
Conditions: both partners purified

binding result: binds
B1: hIgG4 bsAb by modular replacement: golimumab (Gmab) heavy chain with L6 light chain (bispecific antibody, V domains shown)
VH: QVQLVESGGGVVQPGRSLRLSCAASGFIFSSYAMHWVRQAPGNGLEWVAFMSYDGSNKKYADSVKGRFTISRDNSKNTLYLQMNSLRAEDTAVYYCARDRGIAAGGNYYYYGMDVWGQGTTVTVSS
VL: EIVLTQSPGTLSLSPGERATLSCRASGSTFSSYTLAWYQQKPGQAPRLLIYIYSDGGRTSRATGIPDRFSGSGSGTDLTLTISRLEPEDFAVYYCNAESPFYDYDYWGKGTKVEIK
